According to PubChem BioAssay (EPA / NIEHS):
The entries are a selection whose mix differs from that of the whole data set. Records with an inconclusive call do not appear. Calls of active or inactive are those of the source. How the source made its calls: active means hit-call score of the fitted dose curve at least 0.9, where 1 is the maximum; inconclusive means response in the unintended direction; inactive means score below 0.9.

Sequences of proteins named here, by UniProt entry; tags and fusion partners are left off. A change or cut given only in a name is not applied to a line headed by its entry.
UniProt Q96RI1: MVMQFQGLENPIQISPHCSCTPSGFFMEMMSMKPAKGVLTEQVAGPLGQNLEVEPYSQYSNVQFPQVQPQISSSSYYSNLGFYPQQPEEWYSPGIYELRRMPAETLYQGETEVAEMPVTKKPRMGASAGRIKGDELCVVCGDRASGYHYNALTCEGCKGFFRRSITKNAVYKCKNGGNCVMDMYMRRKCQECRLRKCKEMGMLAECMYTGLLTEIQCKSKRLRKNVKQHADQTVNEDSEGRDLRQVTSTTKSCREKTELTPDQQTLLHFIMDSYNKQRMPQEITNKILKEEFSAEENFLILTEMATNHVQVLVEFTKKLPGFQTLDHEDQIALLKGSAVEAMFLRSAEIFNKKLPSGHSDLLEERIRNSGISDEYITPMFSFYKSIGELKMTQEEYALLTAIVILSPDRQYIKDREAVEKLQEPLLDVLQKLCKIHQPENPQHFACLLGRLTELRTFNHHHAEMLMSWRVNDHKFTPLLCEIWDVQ
UniProt Q13133, whole entry, looked up: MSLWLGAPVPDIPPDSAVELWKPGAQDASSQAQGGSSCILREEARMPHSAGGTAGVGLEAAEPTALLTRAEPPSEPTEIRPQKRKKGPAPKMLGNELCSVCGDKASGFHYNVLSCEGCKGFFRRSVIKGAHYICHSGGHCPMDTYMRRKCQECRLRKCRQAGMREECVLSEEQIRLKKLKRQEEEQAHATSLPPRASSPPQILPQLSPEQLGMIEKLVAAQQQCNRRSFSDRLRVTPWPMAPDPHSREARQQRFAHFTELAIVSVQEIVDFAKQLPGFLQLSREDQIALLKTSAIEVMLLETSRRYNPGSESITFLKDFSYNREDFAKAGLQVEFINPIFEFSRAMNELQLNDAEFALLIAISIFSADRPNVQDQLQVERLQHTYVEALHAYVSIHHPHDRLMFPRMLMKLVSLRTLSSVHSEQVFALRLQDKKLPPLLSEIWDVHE
UniProt P55055, whole entry, looked up: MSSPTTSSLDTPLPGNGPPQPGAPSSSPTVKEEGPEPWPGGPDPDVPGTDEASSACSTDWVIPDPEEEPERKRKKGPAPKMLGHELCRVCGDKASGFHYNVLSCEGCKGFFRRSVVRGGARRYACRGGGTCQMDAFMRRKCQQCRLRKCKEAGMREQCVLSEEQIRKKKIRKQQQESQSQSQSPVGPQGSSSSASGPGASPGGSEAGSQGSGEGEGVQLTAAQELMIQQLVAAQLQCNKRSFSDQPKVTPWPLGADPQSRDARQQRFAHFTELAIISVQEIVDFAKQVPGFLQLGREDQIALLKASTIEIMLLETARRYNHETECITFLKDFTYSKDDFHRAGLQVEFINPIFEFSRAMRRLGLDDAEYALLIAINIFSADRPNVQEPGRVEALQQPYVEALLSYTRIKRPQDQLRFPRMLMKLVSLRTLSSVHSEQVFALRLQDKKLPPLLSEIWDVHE
UniProt P62508: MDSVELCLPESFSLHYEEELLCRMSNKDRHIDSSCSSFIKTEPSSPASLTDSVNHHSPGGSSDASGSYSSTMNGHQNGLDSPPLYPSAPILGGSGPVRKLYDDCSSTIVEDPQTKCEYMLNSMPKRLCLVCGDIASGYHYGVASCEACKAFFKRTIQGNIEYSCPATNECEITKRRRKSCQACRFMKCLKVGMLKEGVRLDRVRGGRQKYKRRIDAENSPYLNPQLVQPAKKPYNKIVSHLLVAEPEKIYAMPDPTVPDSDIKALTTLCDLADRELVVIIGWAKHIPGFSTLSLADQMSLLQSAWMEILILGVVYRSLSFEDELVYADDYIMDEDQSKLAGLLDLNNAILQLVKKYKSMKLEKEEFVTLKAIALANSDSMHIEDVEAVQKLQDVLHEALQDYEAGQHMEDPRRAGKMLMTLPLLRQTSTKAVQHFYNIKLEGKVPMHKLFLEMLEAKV
UniProt P41235: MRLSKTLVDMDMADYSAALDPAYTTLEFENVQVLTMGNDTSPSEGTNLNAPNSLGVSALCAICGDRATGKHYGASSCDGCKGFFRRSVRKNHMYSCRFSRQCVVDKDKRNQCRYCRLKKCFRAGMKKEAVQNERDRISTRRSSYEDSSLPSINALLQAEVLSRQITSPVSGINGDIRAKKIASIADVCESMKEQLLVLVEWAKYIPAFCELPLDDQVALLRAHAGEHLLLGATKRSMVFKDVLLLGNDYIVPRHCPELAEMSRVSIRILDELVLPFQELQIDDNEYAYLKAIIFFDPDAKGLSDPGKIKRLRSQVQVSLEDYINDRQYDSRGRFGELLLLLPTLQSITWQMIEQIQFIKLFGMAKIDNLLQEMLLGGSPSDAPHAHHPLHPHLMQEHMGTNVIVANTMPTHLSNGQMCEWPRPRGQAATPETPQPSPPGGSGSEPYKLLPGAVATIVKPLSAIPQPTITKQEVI
UniProt P04150: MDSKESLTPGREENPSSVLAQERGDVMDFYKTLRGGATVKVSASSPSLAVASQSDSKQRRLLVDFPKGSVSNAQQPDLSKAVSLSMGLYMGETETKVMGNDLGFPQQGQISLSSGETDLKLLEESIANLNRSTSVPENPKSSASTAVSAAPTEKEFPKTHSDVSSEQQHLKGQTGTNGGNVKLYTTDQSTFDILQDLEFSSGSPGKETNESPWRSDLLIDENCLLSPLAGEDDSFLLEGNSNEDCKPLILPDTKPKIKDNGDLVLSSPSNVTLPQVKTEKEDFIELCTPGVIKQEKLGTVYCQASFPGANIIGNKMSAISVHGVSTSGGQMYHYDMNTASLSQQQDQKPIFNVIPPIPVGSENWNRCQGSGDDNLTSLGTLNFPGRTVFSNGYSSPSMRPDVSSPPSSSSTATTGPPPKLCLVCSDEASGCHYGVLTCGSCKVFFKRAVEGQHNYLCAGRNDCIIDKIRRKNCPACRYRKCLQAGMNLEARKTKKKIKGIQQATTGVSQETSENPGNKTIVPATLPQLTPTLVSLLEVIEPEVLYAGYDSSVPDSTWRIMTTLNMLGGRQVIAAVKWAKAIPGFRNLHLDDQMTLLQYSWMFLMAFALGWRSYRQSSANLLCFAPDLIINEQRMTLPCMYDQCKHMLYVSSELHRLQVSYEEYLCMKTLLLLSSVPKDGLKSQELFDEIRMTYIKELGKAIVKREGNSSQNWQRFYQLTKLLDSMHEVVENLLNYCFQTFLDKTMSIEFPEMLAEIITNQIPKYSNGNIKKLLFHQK

Tests used:
[1] = target: Bile acid receptor (Homo sapiens) (UniProt Q96RI1); experiment: ATG_FXR_TRANS: Attagene TRANS-FACTORIAL HepG2 Assay for Farnesoid X Receptor (FXR) (AID 2282979); settings: HepG2 Attagene TRANS FXR-GAL4 reporter transcription;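 further: hits raise reporter mRNA above DMSO so AC50 marks FXR activation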
Description: (§1) ATG_TRANS is a cell-based, multiplexed-readout assay that uses HepG2, a human liver cell line, with measurements taken at 24 hours after chemical dosing in a 24-well plate.ATG_FXR_TRANS is one of 30 assay component(s) measured or calculated from the ATG_TRANS assay. It is designed to make measurements of mRNA induction, a form of inducible reporter, as detected with fluorescence intensity signals by Reverse transcription polymerase chain reaction (RT-PCR) and Capillary electrophoresis technology.Data from the assay component ATG_FXR_TRANS was analyzed into 1 assay endpoint. This assay endpoint, ATG_FXR_TRANS, was analyzed in the positive analysis fitting direction relative to DMSO as the negative control and baseline of activity. Using a type of inducible reporter, measures of mRNA for gain-of-signal activity can be used to understand the reporter gene at the transcription factor-level as they relate to the gene NR1H4. Furthermore, this assay endpoint can be referred to as a primary readout, because this assay has produced multiple assay endpoints where this one serves a reporter gene function. To generalize the intended target to other relatable targets, this assay endpoint is annotated to the nuclear receptor intended target family, where the subfamily is non-steroidal.
(§2) Human liver HepG2 cells are transiently transfected with multiple reporter transcription units (MRTUs) in 6-well plates using FuGene 6 reagent (Roche; 3 ml FuGene/1 mg DNA). The MRTU constructs are regulated by a cis-regulating element (promoter). […] A major difference between the CIS and TRANS system is that in CIS activities of endogenous TFs are measured, whereas the TRANS assay evaluates changes in activities of exogenous, chimeric NR-Gal4 proteins. […] At the end of 24 hour incubation, total RNA was isolated using TriZol reagent (Invitrogen). The isolated RNA is then reverse-transcribed using oligo(dT) primer and Mo-MLV reverse transcriptase (Invitrogen) with DNAse I (Ambion) treatment for 30 min. The one-tenth of the produced cDNA was amplified by PCR using Taq DNA polymerase (Invitrogen) and two reporter sequence-specific primers. The PCR products were fluorescently labeled by primer extension with 6-arboxyfluorescein (6-FAM) 5'-labeled reporter sequence-specific primer (2 min at 95 C, 20 s at 68 C and 10 min at 72 C) and these products were digested with 5U of HpaI (New England Biolabs) for 2h at 37 C. The fragments were purified using Qiaquick PCR columns (Qiagen), analyzed on an ABI 3130xL genetic analyzer (Applied Biosystems) with peak positions identified by using a set of X-rhodamine (ROX)-labeled MapMarker1000 molecular weight standards (BioVentures). The raw capillary electrophoresis data was processed using Attagraph software (Attagene).

[2] = target: Oxysterols receptor LXR-alpha (Homo sapiens) (UniProt Q13133); experiment: ATG_LXRa_TRANS: Attagene TRANS-FACTORIAL HepG2 Assay for human Liver X Receptor alpha (LXRa) (AID 2282980); settings: HepG2 Attagene TRANS reporter, LXRa transactivation
Description: as §1, with “plate.ATG_LXRa_TRANS” for “plate.ATG_FXR_TRANS”, “ATG_LXRa_TRANS” for “ATG_FXR_TRANS”, “ATG_LXRa_TRANS,” for “ATG_FXR_TRANS,”, “NR1H3.” for “NR1H4.”
as §2

[3] = target: Oxysterols receptor LXR-beta (Homo sapiens) (UniProt P55055); experiment: ATG_LXRb_TRANS: Attagene TRANS-FACTORIAL HepG2 Assay for human Liver X Receptor beta (LXRb) (AID 2282981); settings: HepG2 Attagene TRANS GAL4-LXRb reporter, mRNA
Summary of the method: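 Gain-of-signal mRNA reporter endpoint, DMSO as negative control. Transiently transfected HepG2 cells carrying the NR-Gal4 chimera and GAL4-UAS reporter units were treated 24 h; transcripts quantified by RT-PCR and capillary electrophoresis fluorescence.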

[4] = ATG_M_06_TRANS: Attagene TRANS-FACTORIAL HepG2 Assay for M06 Transcription Factor (Internal Marker) (AID 2282983); settings: HepG2 Attagene TRANS M06 internal marker reporter
Summary of the method: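 Measured by capillary electrophoresis of fluorescently labelled RT-PCR products, this endpoint reflects reporter mRNA in HepG2 cells harbouring exogenous NR-GAL4 reporter constructs after 24 h exposure, with DMSO as baseline.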

[5] = ATG_GAL4_TRANS: Attagene TRANS-FACTORIAL HepG2 Assay for GAL4 (Internal Marker) (AID 2282976); settings: HepG2 Attagene TRANS GAL4 internal marker reporter
Description: ATG_TRANS is a cell-based, multiplexed-readout assay that uses HepG2, a human liver cell line, with measurements taken at 24 hours after chemical dosing in a 24-well plate.ATG_GAL4_TRANS is one of 30 assay component(s) measured or calculated from the ATG_TRANS assay. It is designed to make measurements of mRNA induction, a form of inducible reporter, as detected with fluorescence intensity signals by Reverse transcription polymerase chain reaction (RT-PCR) and Capillary electrophoresis technology.Data from the assay component ATG_GAL4_TRANS was analyzed into 1 assay endpoint. This assay endpoint, ATG_GAL4_TRANS, was analyzed in the positive analysis fitting direction relative to DMSO as the negative control and baseline of activity. Using a type of inducible reporter, measures of mRNA for gain-of-signal activity can be used to understand the background control at the transcription factor-level as they relate to the gene . Furthermore, this assay endpoint can be referred to as a secondary readout, because this assay has produced multiple assay endpoints where this one serves a background control function. To generalize the intended target to other relatable targets, this assay endpoint is annotated to the background measurement intended target family, where the subfamily is baseline control.
as §2

[6] = target: Estrogen-related receptor gamma (Homo sapiens) (UniProt P62508); experiment: ATG_ERRg_TRANS: Attagene TRANS-FACTORIAL HepG2 Assay for human Estrogen-Related Receptor gamma (ERRg) (AID 2282977); settings: HepG2 Attagene TRANS reporter, ERRg transactivation;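 further: hits increase reporter signal over DMSO so potencies reflect activators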
Summary of the method: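 HepG2 cells transiently transfected with multiplexed GAL4-UAS reporter units and chimeric NR-Gal4 constructs were exposed to test chemicals for 24 h. Reporter mRNA was measured by RT-PCR, 6-FAM primer extension, HpaI digestion and capillary electrophoresis; gain-of-signal versus DMSO.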

[7] = target: Hepatocyte nuclear factor 4-alpha (Homo sapiens) (UniProt P41235); experiment: ATG_HNF4a_TRANS: Attagene TRANS-FACTORIAL HepG2 Assay for human Hepatocyte Nuclear Factor 4 alpha (HNF4a) (AID 2282982); settings: HepG2 HNF4a transactivation reporter, mRNA readout
Summary of the method: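 Gain-of-signal mRNA induction, relative to DMSO vehicle, was read after 24 h compound treatment of HepG2 cells bearing transfected GAL4-UAS reporters. Detection used RT-PCR, 6-FAM primer extension and capillary electrophoresis.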

[8] = ATG_M_19_TRANS: Attagene TRANS-FACTORIAL HepG2 Assay for M19 Transcription Factor (Internal Marker) (AID 2282974); settings: HepG2 Attagene TRANS-FACTORIAL M19 internal marker reporter
Summary of the method: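 Transfected HepG2 (GAL4-UAS MRTUs), 24 h compound, TriZol RNA, DNase-treated RT, reporter PCR, FAM label, HpaI digest, CE fluorescence; gain vs DMSO.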

[9] = target: Glucocorticoid receptor (Homo sapiens) (UniProt P04150); experiment: ATG_GR_TRANS: Attagene TRANS-FACTORIAL HepG2 Assay for human Glucocorticoid Receptor (GR) (AID 2282978); settings: HepG2 Attagene TRANS GR reporter, mRNA transcription;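 further: activators score as hits since higher reporter transcript over DMSO is fitted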
[10] = ATG_Hpa5_TRANS: Attagene TRANS-FACTORIAL HepG2 Assay for human GAL4-Hpa5 Hepatocyte Transcription Factor Basal Promoter (AID 2282975); settings: HepG2 Attagene GAL4-Hpa5 transcription reporter;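 further: hits are increases in reporter mRNA over DMSO baseline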
Summary of the method: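 Basal-promoter GAL4 background control within the HepG2 trans-factorial panel of transiently transfected reporter units. Reporter mRNA is measured 24 h after dosing by RT-PCR and capillary electrophoresis, fitted for gain of signal versus DMSO.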

Measured: outcome

O=[N+]([O-])c1ccc([N+](=O)[O-])cc1
inactive: [1] | [2] | [3] | [4]

CCCCO[P+](=O)OCCCC
inactive: [5] | [6] | [7] | [4]

CCCCOP(OCCCC)OCCCC
inactive: [8] | [5] | [1] | [7]

O=[As]c1ccccc1 (configuration not stated)
inactive: [6] | [2] | [3] | [7] | [4]

O=C(Cl)Oc1ccccc1
inactive: [6] | [1] | [2] | [3] | [7] | [4]

O=[p+]1oc2ccccc2c2ccccc21 (configuration not stated)
inactive: [8] | [5] | [9] | [1] | [3] | [7]

CN(C(=O)Cc1cccc2occc12)[C@H]1CC[C@@]2(CCCO2)C[C@@H]1N1CCCC1
inactive: [9] | [3] | [4]

O=C1C2CC=CCC2C(=O)N1SC(Cl)(Cl)C(Cl)Cl (configuration not stated)
not listed: [5] | [6]
inactive: all other assays above

CC(C)OP(=S)(OC(C)C)SCCNS(=O)(=O)c1ccccc1
inactive: [8] | [6] | [9] | [2] | [3] | [7]

O=C(Cl)OCCOC(=O)Cl
inactive: [8] | [5] | [7] | [4]

O=P(Cl)(Oc1ccccc1)Oc1ccccc1
inactive: [8] | [9] | [3]

CCCCC(CC)CO[P+](=O)OCC(CC)CCCC (configuration not stated)
inactive: [8] | [5] | [9] | [3] | [7] | [4]

ClP(Cl)c1ccccc1
inactive: [5] | [9] | [3] | [4]

O=[P+](Oc1ccccc1)Oc1ccccc1
inactive: [5] | [2] | [7] | [4]
